What was measured:
[1] = test system: acetylcholine chloride-induced airway constriction in guinea pigs; assay: Guinea pig model of airway constriction induced by acetylcholine chloride (inhaled compound, airway resistance); conditions: 2 h after single nebulized inhalation, acetylcholine 25 to 100 µg/kg
Protocol: • (1) The inhibitory effect of the inhaled test compound, Compound 10-2 of the present disclosure, on acetylcholine chloride-induced airway constriction in guinea pigs was evaluated. 40 male Hartley guinea pigs were randomly divided into four groups: a negative control group (clean air, 60-min inhalation), a low-dose test group (10-min inhalation), a medium-dose test group (20-min inhalation), and a high-dose test group (60-min inhalation), with 10 animals per group. The animals received a single-inhalation administration. Approximately 2 h after inhalation, the animals were anesthetized. The trachea and jugular vein were surgically exposed. The trachea was cannulated, and a catheter was inserted into the jugular vein. Each animal was placed on the support platform of a whole-body plethysmograph and connected to the respiratory circuit. […] Airway resistance was measured using an AniRes2005 animal pulmonary function analysis system.
(2) The inhibitory effect of the inhaled test compound, Compound 1-2 of the present disclosure, on acetylcholine chloride-induced airway constriction in guinea pigs was evaluated. […] Acetylcholine chloride was administered at different doses via the jugular venous catheter, and airway resistance was measured using the AniRes2005 animal pulmonary function analysis system.

Sequences of proteins named here, by UniProt entry; tags and fusion partners are left off. A line that says so, or that is headed by a name, gives the form on record, which may keep a tag or linker. Residues count along the entry.
UniProt Q9Y233, 267-1055: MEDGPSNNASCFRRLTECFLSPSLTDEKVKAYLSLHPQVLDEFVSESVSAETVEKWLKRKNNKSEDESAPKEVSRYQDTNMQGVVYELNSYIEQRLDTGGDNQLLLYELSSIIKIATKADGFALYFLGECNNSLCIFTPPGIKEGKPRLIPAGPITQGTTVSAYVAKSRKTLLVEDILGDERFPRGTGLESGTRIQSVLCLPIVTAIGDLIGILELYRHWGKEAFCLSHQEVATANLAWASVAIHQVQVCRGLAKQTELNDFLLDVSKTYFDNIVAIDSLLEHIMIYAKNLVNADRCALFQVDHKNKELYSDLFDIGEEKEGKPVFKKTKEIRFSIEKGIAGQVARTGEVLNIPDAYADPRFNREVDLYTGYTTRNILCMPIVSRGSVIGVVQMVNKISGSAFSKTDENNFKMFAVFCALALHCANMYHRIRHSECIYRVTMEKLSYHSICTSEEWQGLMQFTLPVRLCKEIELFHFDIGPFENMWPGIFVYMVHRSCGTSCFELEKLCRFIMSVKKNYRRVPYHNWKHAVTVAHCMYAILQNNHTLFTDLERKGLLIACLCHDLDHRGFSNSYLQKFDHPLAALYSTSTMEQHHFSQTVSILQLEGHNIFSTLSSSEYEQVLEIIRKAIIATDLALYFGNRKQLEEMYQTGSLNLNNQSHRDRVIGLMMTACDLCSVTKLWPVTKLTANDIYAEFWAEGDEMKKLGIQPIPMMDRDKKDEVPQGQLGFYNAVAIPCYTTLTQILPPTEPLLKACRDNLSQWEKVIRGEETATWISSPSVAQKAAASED
UniProt Q9Y233, 1-779 with tags or gaps: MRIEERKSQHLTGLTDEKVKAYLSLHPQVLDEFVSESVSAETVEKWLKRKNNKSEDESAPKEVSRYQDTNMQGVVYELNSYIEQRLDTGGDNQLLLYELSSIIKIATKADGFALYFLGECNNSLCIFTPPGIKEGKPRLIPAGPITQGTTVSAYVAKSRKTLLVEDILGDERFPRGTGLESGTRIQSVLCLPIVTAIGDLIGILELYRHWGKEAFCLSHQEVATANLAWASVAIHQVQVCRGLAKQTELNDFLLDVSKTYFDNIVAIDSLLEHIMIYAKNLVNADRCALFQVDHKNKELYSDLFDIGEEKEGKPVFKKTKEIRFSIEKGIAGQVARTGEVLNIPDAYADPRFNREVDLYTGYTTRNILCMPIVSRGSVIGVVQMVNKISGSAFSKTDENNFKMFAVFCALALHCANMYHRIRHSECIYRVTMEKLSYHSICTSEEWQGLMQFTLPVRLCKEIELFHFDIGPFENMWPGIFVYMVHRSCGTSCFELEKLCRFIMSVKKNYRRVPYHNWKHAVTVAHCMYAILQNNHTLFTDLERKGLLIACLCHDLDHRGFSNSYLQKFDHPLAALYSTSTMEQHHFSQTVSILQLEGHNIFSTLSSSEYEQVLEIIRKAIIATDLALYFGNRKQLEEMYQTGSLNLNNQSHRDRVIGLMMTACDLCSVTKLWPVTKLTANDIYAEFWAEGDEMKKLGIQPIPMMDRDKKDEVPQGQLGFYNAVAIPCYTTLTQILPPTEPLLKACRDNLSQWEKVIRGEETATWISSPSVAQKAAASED
UniProt P54750, whole entry: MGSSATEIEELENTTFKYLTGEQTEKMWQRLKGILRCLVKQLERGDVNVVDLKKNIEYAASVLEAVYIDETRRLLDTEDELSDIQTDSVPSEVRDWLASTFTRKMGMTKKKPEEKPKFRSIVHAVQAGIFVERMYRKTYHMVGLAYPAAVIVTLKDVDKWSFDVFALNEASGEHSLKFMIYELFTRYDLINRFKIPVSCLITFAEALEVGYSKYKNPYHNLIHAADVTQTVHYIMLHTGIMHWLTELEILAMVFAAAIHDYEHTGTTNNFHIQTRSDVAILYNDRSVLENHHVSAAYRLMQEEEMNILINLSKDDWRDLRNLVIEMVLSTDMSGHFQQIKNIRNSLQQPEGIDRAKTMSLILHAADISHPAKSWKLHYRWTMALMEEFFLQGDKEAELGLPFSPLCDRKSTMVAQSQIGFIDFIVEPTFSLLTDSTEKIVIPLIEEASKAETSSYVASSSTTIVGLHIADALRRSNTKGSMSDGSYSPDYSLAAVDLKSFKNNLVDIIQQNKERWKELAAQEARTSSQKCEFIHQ
UniProt Q01064, whole entry: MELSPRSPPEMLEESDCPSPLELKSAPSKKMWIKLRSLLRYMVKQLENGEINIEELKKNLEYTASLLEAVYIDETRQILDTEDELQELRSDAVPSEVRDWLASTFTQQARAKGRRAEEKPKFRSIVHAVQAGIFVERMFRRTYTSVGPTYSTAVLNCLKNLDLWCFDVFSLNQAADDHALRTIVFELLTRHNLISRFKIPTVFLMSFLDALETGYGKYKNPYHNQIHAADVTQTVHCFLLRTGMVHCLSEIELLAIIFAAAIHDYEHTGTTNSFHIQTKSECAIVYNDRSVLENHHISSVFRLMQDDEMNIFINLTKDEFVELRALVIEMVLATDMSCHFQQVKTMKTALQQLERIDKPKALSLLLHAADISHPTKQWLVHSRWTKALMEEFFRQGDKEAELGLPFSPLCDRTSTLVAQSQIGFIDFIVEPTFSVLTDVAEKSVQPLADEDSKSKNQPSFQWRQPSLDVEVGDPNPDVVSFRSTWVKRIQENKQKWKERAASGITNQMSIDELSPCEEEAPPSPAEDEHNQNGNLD
UniProt O76083, with tags, fused parts or gaps: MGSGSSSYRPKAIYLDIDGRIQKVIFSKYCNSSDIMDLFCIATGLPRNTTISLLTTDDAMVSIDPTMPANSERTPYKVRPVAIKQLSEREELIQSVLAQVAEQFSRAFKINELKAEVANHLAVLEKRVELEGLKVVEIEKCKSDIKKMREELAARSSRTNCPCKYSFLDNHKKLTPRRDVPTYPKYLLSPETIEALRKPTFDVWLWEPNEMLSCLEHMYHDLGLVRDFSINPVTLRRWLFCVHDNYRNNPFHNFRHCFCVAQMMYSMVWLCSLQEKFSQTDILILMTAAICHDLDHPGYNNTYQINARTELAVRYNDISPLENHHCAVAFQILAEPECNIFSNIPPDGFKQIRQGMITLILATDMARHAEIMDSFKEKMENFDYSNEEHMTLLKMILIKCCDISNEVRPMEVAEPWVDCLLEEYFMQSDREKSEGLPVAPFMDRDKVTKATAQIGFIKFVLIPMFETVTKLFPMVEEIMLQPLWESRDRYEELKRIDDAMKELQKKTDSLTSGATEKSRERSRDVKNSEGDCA
UniProt Q14123, whole entry: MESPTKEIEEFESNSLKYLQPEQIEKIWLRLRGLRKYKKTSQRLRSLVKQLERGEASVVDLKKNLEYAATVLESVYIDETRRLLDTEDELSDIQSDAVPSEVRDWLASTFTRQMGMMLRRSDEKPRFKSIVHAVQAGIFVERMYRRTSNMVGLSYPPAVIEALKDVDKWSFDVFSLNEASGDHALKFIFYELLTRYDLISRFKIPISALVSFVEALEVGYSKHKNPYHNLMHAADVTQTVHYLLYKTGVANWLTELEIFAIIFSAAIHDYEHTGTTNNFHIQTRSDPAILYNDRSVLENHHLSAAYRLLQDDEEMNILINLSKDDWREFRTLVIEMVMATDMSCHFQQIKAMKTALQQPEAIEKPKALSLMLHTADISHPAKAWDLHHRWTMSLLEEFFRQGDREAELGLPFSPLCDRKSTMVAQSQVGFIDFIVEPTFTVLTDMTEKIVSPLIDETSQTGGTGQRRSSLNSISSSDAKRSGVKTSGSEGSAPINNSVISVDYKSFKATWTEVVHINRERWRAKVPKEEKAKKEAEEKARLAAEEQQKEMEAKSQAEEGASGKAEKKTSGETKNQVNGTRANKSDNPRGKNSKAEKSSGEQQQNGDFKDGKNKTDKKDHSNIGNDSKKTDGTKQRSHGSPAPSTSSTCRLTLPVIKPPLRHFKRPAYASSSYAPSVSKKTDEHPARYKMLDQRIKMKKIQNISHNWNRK
UniProt O00408, 1-920 with tags or gaps: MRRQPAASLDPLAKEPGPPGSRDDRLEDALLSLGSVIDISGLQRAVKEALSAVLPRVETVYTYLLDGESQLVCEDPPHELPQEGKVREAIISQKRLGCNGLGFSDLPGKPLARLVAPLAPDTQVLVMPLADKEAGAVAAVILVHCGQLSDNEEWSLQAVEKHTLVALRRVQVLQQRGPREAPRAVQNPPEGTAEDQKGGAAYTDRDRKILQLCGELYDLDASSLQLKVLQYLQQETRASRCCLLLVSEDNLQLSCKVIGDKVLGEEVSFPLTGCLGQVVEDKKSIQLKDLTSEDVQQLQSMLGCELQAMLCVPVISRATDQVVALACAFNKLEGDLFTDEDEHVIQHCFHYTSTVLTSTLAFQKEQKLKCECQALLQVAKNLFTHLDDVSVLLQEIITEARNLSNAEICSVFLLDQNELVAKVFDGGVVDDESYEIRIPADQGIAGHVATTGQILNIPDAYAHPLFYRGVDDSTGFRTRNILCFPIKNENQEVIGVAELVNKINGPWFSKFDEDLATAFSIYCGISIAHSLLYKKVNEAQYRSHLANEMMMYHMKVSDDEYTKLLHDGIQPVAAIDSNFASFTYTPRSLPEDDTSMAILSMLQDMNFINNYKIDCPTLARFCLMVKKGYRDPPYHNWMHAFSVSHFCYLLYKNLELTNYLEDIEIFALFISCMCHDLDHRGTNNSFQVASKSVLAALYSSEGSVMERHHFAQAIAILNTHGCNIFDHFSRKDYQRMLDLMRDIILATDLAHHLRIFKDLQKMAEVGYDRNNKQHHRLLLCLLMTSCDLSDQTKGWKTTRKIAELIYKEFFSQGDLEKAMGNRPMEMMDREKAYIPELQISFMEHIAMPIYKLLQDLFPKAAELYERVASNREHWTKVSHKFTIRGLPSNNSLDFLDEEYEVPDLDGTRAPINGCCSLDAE
UniProt Q07343, whole entry: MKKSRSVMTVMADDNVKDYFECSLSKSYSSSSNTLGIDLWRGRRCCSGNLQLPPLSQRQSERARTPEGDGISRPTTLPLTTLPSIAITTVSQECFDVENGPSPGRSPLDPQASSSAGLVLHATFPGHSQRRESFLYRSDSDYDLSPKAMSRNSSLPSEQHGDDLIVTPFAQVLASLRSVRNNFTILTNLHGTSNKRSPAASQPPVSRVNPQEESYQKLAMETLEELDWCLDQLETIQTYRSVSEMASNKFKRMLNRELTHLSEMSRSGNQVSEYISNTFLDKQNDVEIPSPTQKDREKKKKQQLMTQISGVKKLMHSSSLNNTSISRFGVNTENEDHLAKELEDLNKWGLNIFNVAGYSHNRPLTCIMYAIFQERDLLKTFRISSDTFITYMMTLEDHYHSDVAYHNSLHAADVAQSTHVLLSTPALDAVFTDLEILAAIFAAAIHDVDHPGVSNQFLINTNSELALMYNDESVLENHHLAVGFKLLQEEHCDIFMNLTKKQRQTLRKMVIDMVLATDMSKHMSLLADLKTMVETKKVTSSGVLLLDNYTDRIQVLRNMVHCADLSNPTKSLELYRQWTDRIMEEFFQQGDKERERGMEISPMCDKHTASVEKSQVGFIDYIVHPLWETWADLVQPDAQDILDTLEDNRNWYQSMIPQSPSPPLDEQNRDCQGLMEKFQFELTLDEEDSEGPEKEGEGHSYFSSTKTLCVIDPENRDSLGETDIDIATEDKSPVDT
UniProt Q08499, 1-673 with tags or gaps: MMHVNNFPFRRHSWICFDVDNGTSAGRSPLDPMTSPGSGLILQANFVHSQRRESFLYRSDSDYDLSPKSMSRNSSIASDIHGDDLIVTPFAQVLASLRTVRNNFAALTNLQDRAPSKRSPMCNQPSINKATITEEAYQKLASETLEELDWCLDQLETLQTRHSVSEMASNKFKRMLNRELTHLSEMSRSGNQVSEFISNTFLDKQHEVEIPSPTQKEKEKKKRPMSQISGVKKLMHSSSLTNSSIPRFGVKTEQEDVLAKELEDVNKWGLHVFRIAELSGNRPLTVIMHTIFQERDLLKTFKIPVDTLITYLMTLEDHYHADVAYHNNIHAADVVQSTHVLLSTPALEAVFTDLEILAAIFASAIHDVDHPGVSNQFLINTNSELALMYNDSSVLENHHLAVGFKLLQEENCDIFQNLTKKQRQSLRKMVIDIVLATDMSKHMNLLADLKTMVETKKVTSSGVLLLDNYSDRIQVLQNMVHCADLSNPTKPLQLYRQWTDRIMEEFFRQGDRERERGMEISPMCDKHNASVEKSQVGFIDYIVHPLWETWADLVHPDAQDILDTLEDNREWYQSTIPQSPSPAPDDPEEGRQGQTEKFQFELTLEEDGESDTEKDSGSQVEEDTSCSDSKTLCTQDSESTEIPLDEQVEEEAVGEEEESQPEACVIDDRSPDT

PDE10A2 = PDE10A2 (Homo sapiens, UniProt Q9Y233); assay: PDE enzyme activity inhibition assay II (fluorescence polarization); conditions: read-out: IC50, nM PDE10A2; FP assay II, Table 5
Protocol: (§1) In a reaction buffer, i.e., 1× IMAP Reaction Buffer containing 0.1% BSA and supplemented with 1 mM DTT, a PDE enzyme solution and a substrate solution (FAM-cyclic AMP/cyclic AMP) were prepared. The positive control was prepared at an initial concentration of 1/10 µM for the PDE assay and was diluted 3-fold, with a 10+0 dose design. Using the acoustic liquid handling technology (Echo 655), 0.05 µL of each compound in 100% DMSO was transferred into a 384-well plate (Corning 4514), followed by centrifugation at 1,000 rpm for 1 min. Then, 2.5 µL of the PDE enzyme solution was transferred into the 384-well reaction plate, followed by centrifugation at 1,000 rpm for 1 min and incubation at 25 °C for 10 min. Subsequently, 2.5 µL of the substrate solution was transferred into the 384-well reaction plate, followed by centrifugation at 1,000 rpm for 1 min and incubation at 25 °C for 60 min. Then, 15 µL of a binding reagent mixture was transferred into the 384-well reaction plate, followed by centrifugation at 1,000 rpm for 1 min and incubation at 25 °C for 60 min. Finally, the FP signal was measured using a BMG PHERAstar FSX plate reader. IC50 values and nonlinear regression curve fitting were obtained using GraphPad Prism software.
(§2) The inhibitory activities of the compounds against PDE enzymes were evaluated using the FP method, with RPL-554 and compound D7 as control compounds. The detailed test method was the same as that described in PDE Enzyme Activity Inhibition Assay I. The structural formulae of RPL-554 and compound D7 are shown below. [drawing 183]

PDE4C1 = PDE4C1 (Homo sapiens, UniProt Q08493); assay: as above; conditions: read-out: IC50, nM PDE4C1; FP assay II, Table 5
Protocol: as §1, §2

PDE1A = PDE1A (Homo sapiens, UniProt P54750); assay: as above; conditions: read-out: IC50, nM PDE1A; FP assay II, Table 5
Protocol: as §1, §2

PDE1B = PDE1B (Homo sapiens, UniProt Q01064); assay: as above; conditions: read-out: IC50, nM PDE1B; FP assay II, Table 5
Protocol: as §1, §2

PDE9A2 = PDE9A2 (Homo sapiens, UniProt O76083); assay: as above; conditions: read-out: IC50, nM PDE9A2; FP assay II, Table 5
Protocol: as §1, §2

PDE11A4 = PDE11A4 (Homo sapiens, UniProt Q9HCR9); assay: as above; conditions: read-out: IC50, nM PDE11A4; FP assay II, Table 5
Protocol: as §1, §2

PDE10A1 = PDE10A1 (Homo sapiens, UniProt Q9Y233); assay: as above; conditions: read-out: IC50, nM PDE10A1; FP assay II, Table 5
Protocol: as §1, §2

PDE4A1 = PDE4A1 (Homo sapiens, UniProt P27815); assay: as above; conditions: read-out: IC50, nM PDE4A1; FP assay II, Table 5
Protocol: as §1, §2

PDE5A1 = PDE5A1 (Homo sapiens, UniProt O76074); assay: as above; conditions: read-out: IC50, nM PDE5A1; FP assay II, Table 5
Protocol: as §1, §2

PDE1C = PDE1C (Homo sapiens, UniProt Q14123); assay: as above; conditions: read-out: IC50, nM PDE1C; FP assay II, Table 5
Protocol: as §1, §2

PDE6C = PDE6C (Homo sapiens, UniProt P51160); assay: as above; conditions: read-out: IC50, nM PDE6C; FP assay II, Table 5
Protocol: as §1, §2

PDE2A1 = PDE2A1 (Homo sapiens, UniProt O00408); assay: as above; conditions: read-out: IC50, nM PDE2A1; FP assay II, Table 5
Protocol: as §1, §2

PDE4B1 = PDE4B1 (Homo sapiens, UniProt Q07343); assay: as above; conditions: read-out: IC50, nM PDE4B1; FP assay II, Table 5
Protocol: as §1, §2

PDE8A1 = PDE8A1 (Homo sapiens, UniProt O60658); assay: as above; conditions: read-out: IC50, nM PDE8A1; FP assay II, Table 5
Protocol: as §1, §2

PDE4D3 = PDE4D3 (Homo sapiens, UniProt Q08499); assay: as above; conditions: read-out: IC50, nM PDE4D3; FP assay II, Table 5
Protocol: as §1, §2

Row | SMILES | inhibition of airway constriction (airway resistance) ([1]; delivered doses 0.171, 0.341 and 1.024 mg/kg) | inhibition of airway constriction (airway resistance) ([1]; delivered doses 0.235, 0.470 and 1.174 mg/kg) | IC50 (PDE10A2) | IC50 (PDE4C1) | IC50 (PDE1A) | IC50 (PDE1B) | IC50 (PDE9A2) | IC50 (PDE11A4) | IC50 (PDE10A1) | IC50 (PDE4A1) | IC50 (PDE5A1) | IC50 (PDE1C) | IC50 (PDE6C) | IC50 (PDE2A1) | IC50 (PDE4B1) | IC50 (PDE8A1) | IC50 (PDE4D3)
1 | COc1cc2c(cc1OC)-c1cc(N(c3c(C)cc(C)cc3C)C(C)CNC(=O)c3ncc[nH]3)nc(=O)n1CC2 (single isomer, unassigned) [Compound 10-2] | significantly inhibited airway constriction |  |  |  |  |  |  |  |  |  |  |  |  |  |  |  | 
2 | COc1cc2c(cc1OC)-c1cc(N(c3c(C)cc(C)cc3C)C(C)CNC(N)=O)nc(=O)n1CC2 (single isomer, unassigned) [Compound 1-2] |  | significantly inhibited airway constriction | 48.3 nM | 618 nM | 5460 nM | 521 nM | > 10000 nM | 1640 nM | 65.9 nM | 47.8 nM | 7580 nM | 3790 nM | 9330 nM | 1350 nM | 269 nM | 266 nM | 96.2 nM
3 | COc1cc2c(cc1OC)-c1cc(=Nc3c(C)cc(C)cc3C)n(CCNC(N)=O)c(=O)n1CC2 |  |  | 680 nM | 547 nM | > 10000 nM | > 10000 nM | > 10000 nM | > 10000 nM | 892 nM | 74.7 nM | > 10000 nM | > 10000 nM | > 10000 nM | 3170 nM | 450 nM | > 10000 nM | 182 nM
